Measured logP (octanol/water) values of organic chemicals

Source: data files of OPERA 2.9 (Mansouri et al.), github.com/kmansouri/OPERA.

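The OPERA project collected these measurements from public sources as training and test data for property models. The files give a single number for a compound and property, which may rest on several reports. Method, purity and exact conditions of the single measurements are not given. Where a salt, mixture or single isomer is drawn, the source does not say that exactly this form was tested. Some entries may be limits or estimates that an upstream database listed as plain numbers.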

logP is the log10 of the octanol-water partition coefficient; higher is more lipophilic.

The entry for CC1C(=O)CCC1=O lists log Kow -0.8.
The entry for CCC(C)(C)OC lists log Kow 1.55.
The entry for CCN1CC(CCN2CCOCC2)C(c2ccccc2)(c2ccccc2)C1=O (stereo unspecified) lists log Kow 3.6.
The entry for C=Cc1ccncc1 lists log Kow 1.36.
The entry for CCOc1nc(F)cc2nc(S(=O)(=O)Nc3c(Cl)cccc3C(=O)OC)nn12 lists log Kow 1.12.
The entry for C[C@@H]1C[C@H]2[C@@H]3C[C@H](F)C4=CC(=O)C=C[C@]4(C)[C@@]3(F)[C@@H](O)C[C@]2(C)[C@H]1C(=O)COC(=O)C(C)(C)C lists log Kow 3.86.
The entry for Nc1c(Cl)cc(-c2cc(Cl)c(N)c(S(=O)(=O)O)c2)cc1S(=O)(=O)O lists log Kow -2.51.
The entry for FC(F)(F)c1nc2c(Cl)c(Cl)c(Cl)c(Cl)c2[nH]1 lists log Kow 3.97.
The entry for COc1cc([NH-])c([NH-])cc1OC.[Cl-].[Cl-].[Pt+4] lists log Kow -0.47.
The entry for C[N+](C)(C)c1cccc([N+](=O)[O-])c1.[Cl-] lists log Kow 0.001.
The entry for CNC(=O)c1cc(Oc2ccc(NC(=O)Nc3ccc(Cl)c(C(F)(F)F)c3)cc2)ccn1 lists log Kow 3.55.
The entry for N#CCCOCCN(CCC#N)c1ccc(N=Nc2ccc([N+](=O)[O-])cc2)cc1 lists log Kow 0.952.
The entry for Clc1cc(Cl)c(-c2c(Cl)c(Cl)cc(Cl)c2Cl)c(Cl)c1 lists log Kow 6.82.
The entry for OC[C@H]1O[C@@H](n2cnc3c2NC=NC[C@H]3O)C[C@@H]1O lists log Kow -1.1.
The entry for CCN(CC)c1ccc(C(=C2C=CC(=[N+](CC)CC)C=C2)c2ccc(S(=O)(=O)[O-])cc2S(=O)(=O)[O-])cc1.[Na+] lists log Kow -2.783.
The entry for C[C@@H](O[C@H]1OCCN(Cc2nc(=O)[nH][nH]2)[C@H]1c1ccc(F)cc1)c1cc(C(F)(F)F)cc(C(F)(F)F)c1 lists log Kow 4.5.
The entry for CNc1nc(OC)ccc1N.Cl.Cl lists log Kow 0.83.
The entry for CC1(C)C(/C=C(\Cl)C(F)(F)F)C1C(=O)[O-].[K+] (stereo partly drawn) lists log Kow 1.1.
The entry for Nc1cc(S(=O)(=O)O)ccc1O lists log Kow 0.21.
The entry for Cc1nc2n(c(=O)c1CCN1CCC(c3noc4cc(F)ccc34)CC1)CCCC2O (stereo unspecified) lists log Kow 1.8.
The entry for CC(=O)[O-].CN1/C(=C\C=C\C2=[N+](C)c3ccccc3C2(C)C)C(C)(C)c2ccccc21 lists log Kow 1.91.
The entry for CCCCC(C=O)CC (stereo unspecified) lists log Kow 3.335.
The entry for CC(=O)N[C@@H](C=O)[C@@H](O)[C@H](O)[C@H](O)CO lists log Kow -2.1.
The entry for COc1ccc(/C=C/C(=O)NCCC[N+](C)(C)CC(O)CS(=O)(=O)[O-])cc1 (stereo partly drawn) lists log Kow -0.982.
The entry for O[Si](c1ccccc1)(c1ccccc1)c1ccccc1 lists log Kow 4.96.
The entry for OCNc1ccccc1 lists log Kow -0.22.
The entry for Nc1cccc[n+]1[O-] lists log Kow -0.87.
The entry for CN(C)C(=O)Nc1cccc(Br)c1 lists log Kow 2.19.
The entry for CCCOCC[N+](C)(C)C.[I-] lists log Kow -1.97.
The entry for N#Cc1ccc(Br)cc1 lists log Kow 2.36.
The entry for CCC(CO)(CO)COCC(CC)(CO)CO lists log Kow 0.88.
The entry for CC(C)c1ccc(C(C)C)cc1 lists log Kow 5.23.
The entry for COc1ccccc1N1CCN(CCNC(=O)c2ccc[nH]2)CC1 lists log Kow 1.6.
The entry for CC1=NN(c2ccc(S(=O)(=O)[O-])cc2)C(=O)C1/N=N/c1ccccc1C(=O)[O-].[Na+].[Na+] (stereo partly drawn) lists log Kow -2.5.
The entry for CC[N+](C)(C)C.[I-] lists log Kow -3.14.
The entry for O=C1CC(c2cccc(C(F)(F)F)c2)C(=O)N1 (stereo unspecified) lists log Kow 1.26.
The entry for CCCCC[N+](C)(C)C.[I-] lists log Kow -2.22.
The entry for CC(=O)[O-].CCN(CC[n+]1ccccc1)c1ccc(/N=N/c2ccc([N+](=O)[O-])cc2Cl)cc1 lists log Kow 0.399.
The entry for CCN(CC)c1ccc(/C=C/C2=[N+](C)c3ccccc3C2(C)C)cc1.O=P([O-])(O)O lists log Kow -2.4.
The entry for NCC(=O)Nc1ccc(C(=O)O)cc1 lists log Kow 0.95.
The entry for COc1cc(CNC(=O)CCCC/C=C/C(C)C)ccc1O lists log Kow 3.04.
The entry for OC[C@H]1O[C@H](O)[C@H](O)[C@@H](O)[C@@H]1O lists log Kow -2.975.
The entry for CCCCCCCCCCCCCCCCCCCl lists log Kow 9.43.
The entry for COc1cc(CCC(C)=O)ccc1O lists log Kow 0.4.
The entry for CCCCCCCCCC(=O)OCCCCC lists log Kow 6.11.
The entry for Nc1c(/N=N/c2ccc(S(=O)(=O)CCOS(=O)(=O)[O-])cc2)c(S(=O)(=O)[O-])cc2cc(S(=O)(=O)[O-])c(/N=N/c3ccc(S(=O)(=O)CCOS(=O)(=O)[O-])cc3)c(O)c12.[Na+].[Na+].[Na+].[Na+] lists log Kow -4.34.
The entry for CC(C)(C)C(=O)OCn1cc2c(=O)n(COC(=O)C(C)(C)C)cnc2n1 lists log Kow 2.34.
The entry for CC1CN(C(=O)c2ccccc2)CCN1 (stereo unspecified) lists log Kow 0.35.
The entry for O=C(O)CCCCCCCCCC(=O)O lists log Kow 2.8.
The entry for N#Cc1ccc(Cl)c(Cl)c1 lists log Kow 2.8.
The entry for Cc1cc(S(=O)(=O)[O-])ccc1/N=N/c1c(O)ccc2ccccc12.[Na+] lists log Kow -0.95.
The entry for Cc1ccc(O)c([C@H](CCN(C(C)C)C(C)C)c2ccccc2)c1 lists log Kow 5.6.

Again, the 8 entries with the lowest log Kow:

structure (SMILES)	log Kow
Nc1c(/N=N/c2ccc(S(=O)(=O)CCOS(=O)(=O)[O-])cc2)c(S(=O)(=O)[O-])cc2cc(S(=O)(=O)[O-])c(/N=N/c3ccc(S(=O)(=O)CCOS(=O)(=O)[O-])cc3)c(O)c12.[Na+].[Na+].[Na+].[Na+]	-4.34
CC[N+](C)(C)C.[I-]	-3.14
OC[C@H]1O[C@H](O)[C@H](O)[C@@H](O)[C@@H]1O	-2.975
CCN(CC)c1ccc(C(=C2C=CC(=[N+](CC)CC)C=C2)c2ccc(S(=O)(=O)[O-])cc2S(=O)(=O)[O-])cc1.[Na+]	-2.783
Nc1c(Cl)cc(-c2cc(Cl)c(N)c(S(=O)(=O)O)c2)cc1S(=O)(=O)O	-2.51
CC1=NN(c2ccc(S(=O)(=O)[O-])cc2)C(=O)C1/N=N/c1ccccc1C(=O)[O-].[Na+].[Na+] (stereo partly drawn)	-2.5
CCN(CC)c1ccc(/C=C/C2=[N+](C)c3ccccc3C2(C)C)cc1.O=P([O-])(O)O	-2.4
CCCCC[N+](C)(C)C.[I-]	-2.22